Data published in patent US20260124309A1, “STAT6 DEGRADERS AND USES THEREOF” (Kymera Therapeutics, Inc., priority 2023, published 2026).
Where two headings read alike, the source gives them in different places.

Protein sequences, listed by entry. Tags and fused reporters are not part of them. Residues count along the entry.
UniProt P42226, whole entry: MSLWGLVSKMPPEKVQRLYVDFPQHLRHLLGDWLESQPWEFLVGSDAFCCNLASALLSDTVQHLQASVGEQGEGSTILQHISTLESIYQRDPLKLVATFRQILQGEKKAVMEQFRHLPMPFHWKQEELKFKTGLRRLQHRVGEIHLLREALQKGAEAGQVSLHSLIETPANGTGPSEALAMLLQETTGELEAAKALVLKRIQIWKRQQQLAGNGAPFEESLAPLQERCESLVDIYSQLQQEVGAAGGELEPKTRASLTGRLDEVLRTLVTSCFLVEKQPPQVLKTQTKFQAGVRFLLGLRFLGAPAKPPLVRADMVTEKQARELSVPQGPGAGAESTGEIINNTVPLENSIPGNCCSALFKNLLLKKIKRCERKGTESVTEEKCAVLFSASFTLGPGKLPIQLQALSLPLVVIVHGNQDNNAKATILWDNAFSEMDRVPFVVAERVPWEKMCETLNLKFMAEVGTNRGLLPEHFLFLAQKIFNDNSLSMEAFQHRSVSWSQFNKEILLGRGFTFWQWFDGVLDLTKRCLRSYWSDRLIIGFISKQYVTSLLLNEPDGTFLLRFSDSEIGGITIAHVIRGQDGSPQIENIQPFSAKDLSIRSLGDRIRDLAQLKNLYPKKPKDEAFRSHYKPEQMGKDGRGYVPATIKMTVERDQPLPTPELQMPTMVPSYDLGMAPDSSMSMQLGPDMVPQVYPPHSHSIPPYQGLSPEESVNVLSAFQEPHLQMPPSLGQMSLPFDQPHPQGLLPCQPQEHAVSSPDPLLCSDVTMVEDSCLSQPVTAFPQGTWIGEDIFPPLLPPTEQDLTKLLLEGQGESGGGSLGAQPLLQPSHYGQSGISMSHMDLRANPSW
UniProt P42226, 123-632 limits assumed: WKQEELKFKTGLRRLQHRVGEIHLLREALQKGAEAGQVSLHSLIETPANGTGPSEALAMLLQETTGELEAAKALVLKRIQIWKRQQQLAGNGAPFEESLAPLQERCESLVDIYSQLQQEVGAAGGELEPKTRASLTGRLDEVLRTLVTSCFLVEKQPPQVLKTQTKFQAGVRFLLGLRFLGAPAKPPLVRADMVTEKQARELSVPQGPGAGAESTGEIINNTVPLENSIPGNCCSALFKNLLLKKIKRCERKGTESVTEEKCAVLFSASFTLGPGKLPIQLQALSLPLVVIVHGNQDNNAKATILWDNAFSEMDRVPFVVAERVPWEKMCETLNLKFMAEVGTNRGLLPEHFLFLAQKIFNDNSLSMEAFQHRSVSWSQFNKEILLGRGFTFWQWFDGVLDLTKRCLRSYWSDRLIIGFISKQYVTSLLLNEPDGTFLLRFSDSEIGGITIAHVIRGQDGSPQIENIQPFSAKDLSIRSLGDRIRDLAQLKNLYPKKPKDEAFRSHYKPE

Assays:
STAT6 = STAT6 (Homo sapiens, UniProt P42226); assay: STAT6 MSD degradation in A549 cells; conditions: for DC50: read-out: STAT6 MSD degradation DC50 (nM) 24 h
Experimental: Degradation of STAT6 in cells was quantitatively measured using Meso Scale Discovery (MSD) technology. A549 cells were seeded in 96-well plates with a density of 1.5×10e4 to 5×10e5 cells per well in 100 μl fresh media. Compounds were then added to the assay plates with a final top concentration of up to 10 uM in a 1:3 dilution series with total of 9 doses. The assay plates were then incubated for 4 to 24 hours at 37° C. under 5% CO2. The assay plates were then centrifuged for 5 minutes and the cell pellets were treated with 100 μl/well RIPA lysis buffer (Boston Bioproducts, BP-115D) with protease and phosphatase inhibitors (Roche, 05892791001 and 04906837001). To prepare the MSD assay plates (MSD, L15XA), the plates were coated with the capture antibody (Abnova, H00006778) in PBS, at 40 μl/well. The plates were then incubated overnight at 4° C., washed 1 time with 150 μl/well TBST buffer (Cell Signaling Technology, #9997S) and blocked with 150 μl/well blocking buffer (MSD, R93BA-4). Cell lysates were then added to MSD assay plates and the plates were incubated at room temperature for 1 hour. The plates were then washed 3 times with 150 μl/well TBST buffer and 25 μl/well primary detection antibody (Cell Signaling Technology, #5397S). The assay plates were then incubated at room temperature for 1 hour, washed 3 times with 150 μl/well TBST buffer, and 25 μl/well secondary detection antibody, SULFO-TAG anti-rabbit antibody (MSD, R32AB-1) were added. The assay plates were then incubated at room temperature for 1 hour, washed 3 times with 150 μl/well TBST buffer, and 150 μl/well MSD reading buffer (MSD, R92TC-2) were added. The plates were then analyzed by an MSD reader. The data was analyzed by GraphPad Prism and the dose dependent STAT6 degradation was fit using the four-parameter inhibitor vs. response nonlinear regression.
The letter codes for DC50 (nM) include: A (<1 nM); B (1-10 nM); C (>10-100 nM); D (>100-1000 nM); E (>1000 nM); and F (not tested). The letter codes for Dmax (oo) include: A (>90%); B (>70-90%); C (>50-70%); D ([…]); and F (not tested).

[1] = target: biotinylated truncated STAT6 (123-632)-avi (Homo sapiens, UniProt P42226); assay: STAT6 HTRF binding assay; conditions: read-out: STAT6 HTRF: Average IC50, 0.15 nM biotinylated truncated STAT6 (123-632)-avi, 20 nM fluorescein-labeled probe
Experimental: HTRF binding assays were performed using 0.15 nM biotinylated truncated STAT6 (123-632)-avi purified from E. coli, 1× Streptavidin-terbium (CisBio) prepared by mixing SA-Tb in PPI detection buffer (CisBio), 20 nM proprietary fluorescein-labeled probe, and test compounds in assay buffer consisting of 50 mM HEPES-Na pH 7.5, 100 mM NaCl, 1 mM EDTA, 2 mM DTT, 0.1% Tween-20 with a final volume of 20 uL. Compound stocks were dissolved at 10 mM in 100% DMSO and 11 point titration with 3 fold serial dilution was performed in white, opaque 384 well microplates. Reaction plates were incubated at room temperature for 30 minutes. Plates were centrifuged at low rpm for 5 mins, and the ratio of fluorescence intensities were measured at emission wavelengths for fluorescein acceptor (520 nm) and terbium donor (495 nm) on Envision Plate reader. % Inhibition was calculated from the 520/495 ratio generated by using proprietary positive control compound for 100% inhibition and DMSO only reactions for 0% inhibition. Data was processed and dose response curves were generated using GraphPad Prism to determine the concentration required for inhibiting 50% of the HTRF signal (IC50).
The letter codes for IC50 (μM) include: A (<0.1 μM); B (0.1-1 μM); C (>1-10 μM); D (>10-100 μM); E (>100 μM); and F (not tested).

| Structure (SMILES) | STAT6 MSD degradation Dmax % 24 h (STAT6) | DC50 (STAT6) [nM] | IC50 ([1]; HTRF binding) [nM] | IC50 ([1]; 30 minutes at room temperature) [nM] |
| --- | --- | --- | --- | --- |
| CN(C)C(=O)c1cc2c(-c3ccc(C4CCN(c5ccc(NC6CCC(=O)NC6=O)cc5F)CC4)cc3)cc([C@H]3CCCN(C(=O)CCn4ccnn4)C3)c(F)c2[nH]1 (stereo partly drawn) | B (B (>70-90%)) | < 1 | < 100 | – |
| COc1cc(C2CCN(c3ccc(-c4cc(C5=CCCN(C(=O)CCn6cccn6)C5)c(F)c5[nH]c(C(=O)N(C)C)cc45)c(C)c3F)CC2)c(F)cc1NC1CCC(=O)NC1=O (stereo not drawn) | A (A (>90%)) | 1 to 10 | 100 to 1000 | – |
| CC(C)C(=O)N1CCC=C(c2cc(-c3cc(F)c(N4CCN(CCc5cccc6c5n(C)c(=O)n6C5CCC(=O)NC5=O)CC4)cc3F)c3cc(C(=O)N(C)C)[nH]c3c2F)C1 (stereo not drawn) | A (A (>90%)) | 1 to 10 | 100 to 1000 | – |
| CN(C)C(=O)c1cc2c(-c3ccc(C4CCN(c5ccc(OC6CCC(=O)NC6=O)cc5F)CC4)cc3)cc(C3=CCCN(C(=O)CCn4ccnn4)C3)c(F)c2[nH]1 (stereo not drawn) | A (A (>90%)) | < 1 | < 100 | – |
| COc1cc(C2CCN(c3cccc4c3n(C)c(=O)n4C3CCC(=O)NC3=O)CC2)ccc1-c1cc(C2=CCCN(C(=O)C(C)C)C2)c(F)c2[nH]c(C(=O)N(C)C)cc12 (stereo not drawn) | A (A (>90%)) | < 1 | 1000 to 10000 | – |
| COc1cc(N2CCN(c3cc(F)c(-c4cc(C5=CCCN(C(=O)CCn6cccn6)C5)c(F)c5[nH]c(C(=O)N(C)C)cc45)cc3F)CC2)c(F)cc1NC1CCC(=O)NC1=O (stereo not drawn) | B (B (>70-90%)) | 1 to 10 | < 100 | – |
| CN(C)C(=O)c1cc2c(-c3ccc(C4CCN(c5c(F)cc(C6CCC(=O)NC6=O)cc5F)CC4)cc3)cc([C@H]3CCCN(C(=O)CCn4cccn4)C3)c(F)c2[nH]1 (stereo partly drawn) | A (A (>90%)) | 1 to 10 | 1000 to 10000 | – |
| CN(C)C(=O)c1cc2c(-c3ccc(C4CCN(c5ccc(C6CCC(=O)NC6=O)cc5F)CC4)cc3)cc([C@H]3CCCN(C(=O)CCn4cccn4)C3)c(F)c2[nH]1 (stereo partly drawn) | A (A (>90%)) | 1 to 10 | 100 to 1000 | – |
| CN(C)C(=O)c1cc2c(-c3ccc(C4CCN(c5ccc(NC6CCC(=O)NC6=O)cc5F)CC4)cc3)cc(C3=CCCN(C(=O)CCn4cccn4)C3)c(F)c2[nH]1 (stereo not drawn) | B (B (>70-90%)) | 1 to 10 | < 100 | – |
| CN(C)C(=O)c1cc2c(-c3cc(F)c(N4CCN(c5ccc(NC6CCC(=O)NC6=O)cc5F)CC4)cc3F)cc(C3=CCCN(C(=O)CCn4cccn4)C3)c(F)c2[nH]1 (stereo not drawn) | B (B (>70-90%)) | < 1 | < 100 | – |
| Cc1nn(C2CCC(=O)NC2=O)c2ccc(F)c(CCN3CCN(c4cc(Cl)c(-c5cc([C@H]6CCCN(C(=O)CCn7cccn7)C6)c(F)c6[nH]c(C(=O)N(C)C)cc56)cc4F)CC3)c12 (stereo partly drawn) | A (A (>90%)) | < 1 | 100 to 1000 | – |
| CC(=O)N1CCC=C(c2cc(-c3ccc(C4CCN(c5cccc6c5c(C)nn6C5CCC(=O)NC5=O)CC4)cc3C)c3cc(C(=O)N(C)C)[nH]c3c2F)C1 (stereo not drawn) | A (A (>90%)) | 10 to 100 | 1000 to 10000 | – |
| COc1cc(N2CCN(CCc3ccc(C4CCC(=O)NC4=O)c(Cl)c3)CC2)ccc1-c1cc(C2CCCN(C(C)=O)C2)c(F)c2[nH]c(C(=O)N(C)C)cc12 (stereo not drawn) | B (B (>70-90%)) | 10 to 100 | – | 100 to 1000 |
| CC(=O)N1CCC=C(c2cc(-c3ccc(N4CCN(CCc5cccc6c5c(C)nn6C5CCC(=O)NC5=O)CC4)cc3OC(F)(F)F)c3cc(C(=O)N(C)C)[nH]c3c2F)C1 (stereo not drawn) | A (A (>90%)) | 1 to 10 | 100 to 1000 | – |
| COc1cc(N2CCN(CCCCCCCCCCCCCCN(C(=O)[C@H]3CCCN(c4cncc5ccccc45)C3)c3ccc(=O)n(CC(=O)O)c3)CC2)ccc1-c1cc(C2=CCCN(C(=O)CCn3ccnn3)C2)c(F)c2[nH]c(C(=O)N(C)C)cc12 | B (B (>70-90%)) | 10 to 100 | < 100 | – |
| CN(C)C(=O)c1cc2c(-c3ccc(C4CCN(c5cc(F)c(C6CCC(=O)NC6=O)c(F)c5)CC4)cc3)cc([C@H]3CCCN(C(=O)CCn4cccn4)C3)c(F)c2[nH]1 (stereo partly drawn) | A (A (>90%)) | < 1 | 100 to 1000 | – |
| COc1cc(C2CCN(CCc3ccc(C4CCC(=O)NC4=O)cc3F)CC2)ccc1-c1cc(C2=CCCN(C(=O)CCn3ccnn3)C2)c(F)c2[nH]c(C(=O)N(C)C)cc12 (stereo not drawn) | A (A (>90%)) | < 1 | < 100 | – |
| CC(=O)N1CCC[C@H](c2cc(-c3ccc(N4CCN(CCc5cccc6c5n(C)c(=O)n6C5CCC(=O)NC5=O)CC4)cc3OC(F)(F)F)c3cc(C(=O)N(C)C)[nH]c3c2F)C1 (stereo partly drawn) | B (B (>70-90%)) | < 1 | 1000 to 10000 | – |
| COc1cc(C2CCN(c3cccc4c3n(C)c(=O)n4C3CCC(=O)NC3=O)CC2)ccc1-c1cc(C2=CCCN(C(C)=O)C2)c(F)c2sc(C(=O)N(C)C)cc12 (stereo not drawn) | C (C (>50-70%)) | 10 to 100 | 1000 to 10000 | – |
| Cn1c(=O)n(C2CCC(=O)NC2=O)c2cccc(CCN3CCN(c4ccc(-c5cc([C@H]6CCCN(C(=O)CCn7cccn7)C6)c(F)c6[nH]c(C(=O)N7CCCC7)cc56)cc4)CC3)c21 (stereo partly drawn) | B (B (>70-90%)) | < 1 | 100 to 1000 | – |
| CN(C)C(=O)c1cc2c(-c3ccc(N4CCN(C5CCN(c6ccc(C7CCC(=O)NC7=O)cc6F)CC5)CC4)cc3F)cc(C3=CCCN(C(=O)CCn4cccn4)C3)c(F)c2[nH]1 (stereo not drawn) | A (A (>90%)) | < 1 | < 100 | – |
| Cc1nn(C2CCC(=O)NC2=O)c2cccc(CCN3CCN(c4cc(Cl)c(-c5cc([C@H]6CCCN(C(=O)CCn7cccn7)C6)c(F)c6[nH]c(C(=O)N(C)C)cc56)cc4F)CC3)c12 (stereo partly drawn) | A (A (>90%)) | < 1 | 100 to 1000 | – |
| CN(C)C(=O)c1cc2c(F)c([C@H]3CCCN(C(=O)CCn4cccn4)C3)cc(-c3ccc(N4CCN(CCc5cccc6c5n(C)c(=O)n6C5CCC(=O)NC5=O)CC4)cc3Cl)c2o1 (stereo partly drawn) | B (B (>70-90%)) | < 1 | < 100 | – |
| COc1cc(N2CC3(CCN(c4cc(F)c(-c5cc(C6=CCCN(C(=O)CCn7cccn7)C6)c(F)c6[nH]c(C(=O)N(C)C)cc56)cc4F)CC3)C2)c(F)cc1NC1CCC(=O)NC1=O (stereo not drawn) | B (B (>70-90%)) | 10 to 100 | < 100 | – |
| COc1cc(C2CCN(c3cccc4c3n(C)c(=O)n4C3CCC(=O)NC3=O)CC2)c(F)cc1-c1cc([C@H]2CCCN(C(C)=O)C2)c(F)c2[nH]c(C(=O)N(C)C)cc12 (stereo partly drawn) | A (A (>90%)) | < 1 | 100 to 1000 | – |
| C[C@@H](Cn1ccnn1)C(=O)N1CCC=C(c2cc(-c3ccc(C4CCN(c5ccc(NC6CCC(=O)NC6=O)cc5F)CC4)cc3)c3cc(C(=O)N(C)C)[nH]c3c2F)C1 (stereo partly drawn) | B (B (>70-90%)) | 1 to 10 | 100 to 1000 | – |
| COc1cc(N2CCC3(CC2)CCN(c2cc(F)c(-c4cc(C5=CCCN(C(=O)CCn6cccn6)C5)c(F)c5[nH]c(C(=O)N(C)C)cc45)cc2F)C3)c(F)cc1NC1CCC(=O)NC1=O (stereo not drawn) | A (A (>90%)) | 1 to 10 | < 100 | – |
